In patent publication US20130116284A1, “LIPOIC ACID AND NITROXIDE DERIVATIVES AND USES THEREOF” (RADIKAL THERAPEUTICS INC., priority 2010, published 2013):

Tested on: RAW cells
Experiment: cytoprotection of RAW cells exposed to H2O2 (viability)
Conditions: 0.1 μM, pre-treated 4 hours, H2O2 200 μM for 24 hours; H2O2 alone 65%

SMILES	viability of RAW cells after H2O2 (restored from 65%) [%]
NC(=O)c1cccc2[nH]c(CCCCC3CCSS3)nc12 (centres unmarked) [compound 1, 2-(4-(1,2-dithiolan-3-yl)butyl)-1H-benzo[d]imidazole-4-carboxamide]	90
C[C@]1(c2nc3c(C(N)=O)cccc3[nH]2)CCCN1 [ABT-888]	75
